Patent US20040259866A1, “Calcium channel blockers comprising two benzhydril moieties” (priority 1998, published 2004)
pIC50: −log10 of the molar value. Like-named read-outs stand apart in the source and are kept apart here.

By UniProt entry, the sequences of proteins in these tests, tags left out.
UniProt O43497, whole entry: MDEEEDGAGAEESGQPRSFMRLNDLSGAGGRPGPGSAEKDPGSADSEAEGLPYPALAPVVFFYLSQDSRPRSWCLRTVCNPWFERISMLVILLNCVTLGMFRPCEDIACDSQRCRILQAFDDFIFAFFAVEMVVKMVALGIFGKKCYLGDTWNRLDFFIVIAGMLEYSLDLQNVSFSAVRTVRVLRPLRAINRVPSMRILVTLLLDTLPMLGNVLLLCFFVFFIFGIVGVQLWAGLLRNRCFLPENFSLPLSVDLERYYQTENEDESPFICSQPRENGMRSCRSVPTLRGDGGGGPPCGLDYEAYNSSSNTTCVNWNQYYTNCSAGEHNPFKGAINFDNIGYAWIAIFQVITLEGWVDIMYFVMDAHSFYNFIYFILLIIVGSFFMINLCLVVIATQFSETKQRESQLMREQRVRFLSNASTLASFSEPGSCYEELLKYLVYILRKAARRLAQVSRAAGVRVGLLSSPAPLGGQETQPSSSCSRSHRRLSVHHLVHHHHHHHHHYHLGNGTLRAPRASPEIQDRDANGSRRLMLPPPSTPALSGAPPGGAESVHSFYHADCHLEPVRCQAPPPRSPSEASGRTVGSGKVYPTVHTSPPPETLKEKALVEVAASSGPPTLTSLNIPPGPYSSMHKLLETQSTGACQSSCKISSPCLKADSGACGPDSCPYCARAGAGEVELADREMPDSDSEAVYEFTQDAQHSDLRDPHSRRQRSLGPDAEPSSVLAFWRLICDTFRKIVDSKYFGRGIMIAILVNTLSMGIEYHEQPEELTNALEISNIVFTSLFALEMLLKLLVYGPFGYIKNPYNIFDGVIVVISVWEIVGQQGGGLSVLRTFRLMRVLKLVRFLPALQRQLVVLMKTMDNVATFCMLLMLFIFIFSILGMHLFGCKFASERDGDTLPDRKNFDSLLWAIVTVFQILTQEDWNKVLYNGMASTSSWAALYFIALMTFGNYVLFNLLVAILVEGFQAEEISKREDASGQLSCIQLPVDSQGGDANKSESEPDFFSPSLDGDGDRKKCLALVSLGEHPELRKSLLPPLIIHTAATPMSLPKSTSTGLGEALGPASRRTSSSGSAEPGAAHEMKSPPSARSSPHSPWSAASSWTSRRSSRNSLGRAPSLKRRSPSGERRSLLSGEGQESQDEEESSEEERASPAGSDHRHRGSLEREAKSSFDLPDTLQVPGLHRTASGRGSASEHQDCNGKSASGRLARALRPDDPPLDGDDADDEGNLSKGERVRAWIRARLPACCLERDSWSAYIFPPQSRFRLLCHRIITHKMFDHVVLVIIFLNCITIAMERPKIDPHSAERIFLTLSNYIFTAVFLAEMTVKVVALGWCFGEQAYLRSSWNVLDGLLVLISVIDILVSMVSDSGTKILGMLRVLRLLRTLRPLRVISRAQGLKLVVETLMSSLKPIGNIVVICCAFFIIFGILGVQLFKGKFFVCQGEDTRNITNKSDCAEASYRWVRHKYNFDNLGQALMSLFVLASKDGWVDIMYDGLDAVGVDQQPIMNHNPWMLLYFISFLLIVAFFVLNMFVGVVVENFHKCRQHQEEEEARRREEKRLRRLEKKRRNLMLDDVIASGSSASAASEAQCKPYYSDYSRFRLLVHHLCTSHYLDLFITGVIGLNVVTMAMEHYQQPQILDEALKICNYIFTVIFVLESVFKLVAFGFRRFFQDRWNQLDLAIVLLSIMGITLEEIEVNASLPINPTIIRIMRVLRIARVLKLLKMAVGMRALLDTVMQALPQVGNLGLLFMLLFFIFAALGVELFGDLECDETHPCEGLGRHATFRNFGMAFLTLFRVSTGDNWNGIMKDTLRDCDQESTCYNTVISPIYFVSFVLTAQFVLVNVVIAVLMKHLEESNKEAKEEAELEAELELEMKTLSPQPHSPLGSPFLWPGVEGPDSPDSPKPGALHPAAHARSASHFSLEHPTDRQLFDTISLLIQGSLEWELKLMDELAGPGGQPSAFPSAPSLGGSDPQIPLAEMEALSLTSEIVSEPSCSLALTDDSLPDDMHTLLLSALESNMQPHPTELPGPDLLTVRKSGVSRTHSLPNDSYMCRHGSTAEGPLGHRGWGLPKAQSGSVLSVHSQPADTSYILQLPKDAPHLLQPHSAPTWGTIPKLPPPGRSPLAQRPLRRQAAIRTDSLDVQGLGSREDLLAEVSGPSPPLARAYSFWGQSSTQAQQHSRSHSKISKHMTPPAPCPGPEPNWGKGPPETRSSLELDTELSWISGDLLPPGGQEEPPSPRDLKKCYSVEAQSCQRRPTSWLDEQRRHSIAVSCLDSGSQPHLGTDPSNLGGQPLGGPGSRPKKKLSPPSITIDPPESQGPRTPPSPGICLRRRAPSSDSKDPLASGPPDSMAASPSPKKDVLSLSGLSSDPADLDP
UniProt Q02294, whole entry: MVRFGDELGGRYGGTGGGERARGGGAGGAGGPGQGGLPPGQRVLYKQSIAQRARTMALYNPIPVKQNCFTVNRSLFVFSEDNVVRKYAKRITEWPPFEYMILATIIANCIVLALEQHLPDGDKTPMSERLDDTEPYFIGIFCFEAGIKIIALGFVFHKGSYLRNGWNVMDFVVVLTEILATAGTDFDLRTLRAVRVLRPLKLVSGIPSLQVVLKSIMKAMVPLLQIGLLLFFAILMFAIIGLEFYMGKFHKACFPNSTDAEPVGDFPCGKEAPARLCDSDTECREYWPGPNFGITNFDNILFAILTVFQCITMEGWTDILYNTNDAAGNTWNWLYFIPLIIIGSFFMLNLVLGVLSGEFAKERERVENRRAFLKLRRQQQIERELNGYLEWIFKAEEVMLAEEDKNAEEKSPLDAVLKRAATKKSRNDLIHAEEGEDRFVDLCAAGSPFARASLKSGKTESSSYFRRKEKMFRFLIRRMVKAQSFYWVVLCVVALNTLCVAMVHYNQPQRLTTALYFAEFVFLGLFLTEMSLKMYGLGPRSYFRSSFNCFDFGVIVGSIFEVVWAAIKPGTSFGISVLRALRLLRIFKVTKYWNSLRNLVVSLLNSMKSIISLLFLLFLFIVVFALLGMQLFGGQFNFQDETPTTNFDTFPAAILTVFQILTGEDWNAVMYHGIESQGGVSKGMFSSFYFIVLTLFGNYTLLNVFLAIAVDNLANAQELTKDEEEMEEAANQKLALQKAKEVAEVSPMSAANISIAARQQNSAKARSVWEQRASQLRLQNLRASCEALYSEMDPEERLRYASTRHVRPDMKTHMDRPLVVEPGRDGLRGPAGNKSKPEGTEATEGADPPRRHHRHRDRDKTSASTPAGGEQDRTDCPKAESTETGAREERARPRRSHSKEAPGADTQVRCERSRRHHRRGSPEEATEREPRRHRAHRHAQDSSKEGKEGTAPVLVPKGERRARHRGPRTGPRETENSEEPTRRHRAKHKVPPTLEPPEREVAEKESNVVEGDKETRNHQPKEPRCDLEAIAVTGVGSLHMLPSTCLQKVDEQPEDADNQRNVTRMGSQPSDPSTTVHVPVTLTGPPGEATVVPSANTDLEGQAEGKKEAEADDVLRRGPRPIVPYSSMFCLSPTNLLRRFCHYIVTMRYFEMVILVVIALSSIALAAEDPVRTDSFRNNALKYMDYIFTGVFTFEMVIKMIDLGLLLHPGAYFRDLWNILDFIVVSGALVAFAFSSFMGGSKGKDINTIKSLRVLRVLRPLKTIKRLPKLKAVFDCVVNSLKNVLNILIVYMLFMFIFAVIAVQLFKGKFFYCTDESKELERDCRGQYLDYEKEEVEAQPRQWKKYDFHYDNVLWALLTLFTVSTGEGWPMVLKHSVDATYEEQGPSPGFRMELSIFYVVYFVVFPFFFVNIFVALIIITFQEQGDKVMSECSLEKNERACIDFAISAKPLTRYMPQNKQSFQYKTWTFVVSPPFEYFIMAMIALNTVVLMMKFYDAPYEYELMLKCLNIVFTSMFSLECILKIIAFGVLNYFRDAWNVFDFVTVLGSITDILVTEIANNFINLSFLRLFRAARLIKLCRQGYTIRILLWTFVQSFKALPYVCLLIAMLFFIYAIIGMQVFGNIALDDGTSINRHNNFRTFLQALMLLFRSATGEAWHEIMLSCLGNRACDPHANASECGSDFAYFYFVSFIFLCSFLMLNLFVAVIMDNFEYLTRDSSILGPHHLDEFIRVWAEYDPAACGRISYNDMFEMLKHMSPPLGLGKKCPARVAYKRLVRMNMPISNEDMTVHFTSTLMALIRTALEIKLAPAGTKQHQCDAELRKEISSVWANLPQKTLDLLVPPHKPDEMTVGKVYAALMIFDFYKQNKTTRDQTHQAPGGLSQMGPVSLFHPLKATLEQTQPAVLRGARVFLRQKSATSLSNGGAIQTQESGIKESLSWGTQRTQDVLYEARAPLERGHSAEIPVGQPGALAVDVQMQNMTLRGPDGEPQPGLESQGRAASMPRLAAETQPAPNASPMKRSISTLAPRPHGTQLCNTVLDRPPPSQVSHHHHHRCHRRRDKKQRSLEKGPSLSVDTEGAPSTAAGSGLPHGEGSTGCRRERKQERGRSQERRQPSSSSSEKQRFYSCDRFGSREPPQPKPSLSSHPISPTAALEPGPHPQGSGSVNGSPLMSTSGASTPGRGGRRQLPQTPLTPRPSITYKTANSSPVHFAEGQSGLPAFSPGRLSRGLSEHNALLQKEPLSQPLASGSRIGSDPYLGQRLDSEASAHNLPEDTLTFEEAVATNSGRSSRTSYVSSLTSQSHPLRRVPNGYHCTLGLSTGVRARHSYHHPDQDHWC

How the values were obtained:
[1] = molecular target: human α1G subunits (T-type channels) (Homo sapiens, UniProt O43497); experiment: Block of α1G T-type channels, patch clamp in HEK cell lines (Example 8)
[2] = molecular target: rat α1B+α2b+β1b channels (N-type channels) (Rattus norvegicus, UniProt Q02294); experiment: Block of α1B N-type channels, whole cell patch recordings (Example 6); details: HEK 293, 5 mM barium as charge carrier

NC(=O)C1CN(C(c2ccccc2)c2ccccc2)CCN1C(=O)CC(c1ccccc1)c1ccccc1 (stereo not shown)
pIC50 ([1]; read-out: Block of α1G T-type Channels IC50, 80 mV, 80 mV (inactivation protocol)): 6.34 | pIC50 ([1]; read-out: Block of α1G T-type Channels IC50, 100 mV, 100 mV (non-inactivating protocol)): 5.59 | pIC50 ([2]; read-out: Block of α1B N-type Channels IC50, 0.067 Hz, 0.067 Hz): 6.44 | pIC50 ([2]; read-out: Block of α1B N-type Channels IC50, 0.2 Hz, 0.2 Hz): 6.51
